# scFv variants of Ab-95 (light chain) against a SARS-CoV-2 spike peptide

The target is the same throughout: PDVDLGDISGINAS, from the HR2 region of SARS-CoV-2 spike.

Parent: Ab-95, a human scFv built as VH, the linker GGGGSGGGGSGGGGS, VL. Only the CDRs of the light chain vary.
VH: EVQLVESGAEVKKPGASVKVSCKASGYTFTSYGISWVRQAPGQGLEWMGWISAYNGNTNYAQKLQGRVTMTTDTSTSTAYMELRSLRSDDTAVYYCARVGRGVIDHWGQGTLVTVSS
VL: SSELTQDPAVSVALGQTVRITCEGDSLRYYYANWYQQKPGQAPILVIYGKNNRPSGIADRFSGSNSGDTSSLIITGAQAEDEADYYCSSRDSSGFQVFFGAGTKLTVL

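The parent was found by panning a naive human phage display library on the peptide. In library AAYL52, one, two or three CDR residues were substituted; doubles and triples were drawn at random. The assay is AlphaSeq: two haploid yeast populations carry antibody and antigen on their surface. After mating in shaken culture at 30 °C for 16 h, diploids were selected and their barcode pairs sequenced. Read counts were normalised to the haploid input and turned into Kd by a linear fit to BCL2-family pairs of known affinity, for each replicate. There are three technical replicates.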

Variants are written as CDR1, CDR2 and CDR3 of the light chain (limits as in the source). Parent: EGDSLRYYYAN, GKNNRPS, SSRDSSGFQVF.
Numbers give log10(Kd / nM), so 0 is 1 nM and 3 is 1 µM. Smaller is tighter.
A mean of the replicates is given; it leaves out those without a signal.
A pair that was not seen in that replicate is written "nd"; this usually means weak binding, but a binder can also be missed.
Three control strains display no target. For library AAYL52, 28% of the pairings with them gave a signal, with a median of 3.91 and one signal in twenty below 2.90, so weak values seen in few replicates may be background. For each scFv, signals with the empty controls are counted beside the result, with their mean in brackets.

CDR-L1 | CDR-L2 | CDR-L3 | replicates, log10 nM | mean log10 Kd (nM) | empty controls
EGDYLRHYYAN | GKNNRPV | SSRDSSGFQVF | 2.40 2.14 2.38 | 2.30 | 1/9 (2.74)
EGDSLRGYYAD | GKNNQPS | SSRDSSGFQVF | 3.02 nd 4.44 | 3.73 | 3/9 (3.57)
EGWSLRVYYAN | GKNNRPS | SSRDSSGFQVE | 4.66 nd nd | 4.66 | 3/9 (4.26)
AGDSLRYYYKN | GKKNRPS | SSRDSSGFQVF | 5.72 nd 4.13 | 4.93 | 6/9 (3.97)
EGDSLRYYYAN | KKNNRMS | SSRDSSGFQVF | nd nd nd | nd | 2/9 (3.66)
EGDMLRYYYAN | GKNNRPS | SSRDSSGPNVF | 3.25 nd nd | 3.25 | 4/9 (2.91)
EGDSLRYYYAN | GKNNRPR | SKRESSGFQVF | 2.75 3.38 nd | 3.06 | 2/9 (3.78)
EGDSLRYYYAN | GKRNRFS | SSRDSSGFQVF | 3.85 3.06 nd | 3.46 | 3/9 (3.81)
EGDSLRYYPAN | AKNNRPS | SSRDSSVFQVF | 4.76 2.72 2.88 | 3.45 | 2/9 (4.62)
EGQSLRVYLAN | GKNNRPS | SSRDSSGFQVF | 3.63 nd 3.96 | 3.80 | 5/9 (3.96)
EGDSLRKYYAN | GKNNRPS | KSRDHSGFQVF | 3.25 3.82 4.48 | 3.85 | 5/9 (3.44)
EGDSLRTYYAN | GKNNRGS | SSPDSSGFQVF | 2.63 2.79 nd | 2.71 | 1/9 (3.90)
EGDSLRYYYAN | GRNDRPS | SSRDSSGFYVF | 2.85 2.57 2.41 | 2.61 | 1/9 (3.90)
EGDSLRYYHAN | WKNNRPS | SSRDSSGFQVF | nd 4.02 3.35 | 3.69 | 4/9 (3.89)
AGDSLRYYYAN | GKNWRPS | SSEDSSGFQVF | 3.69 4.42 4.22 | 4.11 | 4/9 (3.83)
EGDSSRYYYAN | GKNNRLS | SSRDSSGNQVF | 4.13 nd nd | 4.13 | 1/9 (3.51)
EGDSLRYMYAN | GKNNRPS | SSRDISGFQVA | 1.44 1.44 0.94 | 1.27 | 2/9 (4.31)
EGLSLRYYYAN | GGNNRPS | SSRDSSYFQVF | nd 3.63 4.30 | 3.96 | 3/9 (4.02)
EGDMLRYYHAN | GKNNRPS | SSRDSSGFQVF | 3.38 2.81 2.88 | 3.02 | 2/9 (4.21)
EGDSHRYYYAA | LKNNRPS | SSRDSSGFQVF | 4.08 3.30 3.54 | 3.64 | 3/9 (4.50)
EGWSLRYYYAN | MKNKRPS | SSRDSSGFQVF | nd nd nd | nd | 0/9
EMDSLRYYYAN | MKNNRPS | SSRDSSGFEVF | nd nd nd | nd | 3/9 (4.30)
EGDGLRYYYAN | GKNNRPS | SSRDSSGQQVW | 3.64 2.30 2.42 | 2.79 | 0/9
EGDSLRYYYAR | GKNNRPS | SSRDMKGFQVF | nd nd nd | nd | 0/9
EGDSLRYYYAN | GKNNRPS | SSMSSSGAQVF | 4.82 4.24 nd | 4.53 | 1/9 (3.97)
EGDSLRYYYAL | GANNRPS | SSRDSSGRQVF | 2.34 2.23 2.47 | 2.35 | 2/9 (4.60)
EGDPLRYYHAN | GKNNRPS | SSRGSSGFQVF | 2.86 3.25 3.90 | 3.34 | 2/9 (4.18)
EGDSLRYYYAN | EKNNRPF | SKRDSSGFQVF | 4.34 nd nd | 4.34 | 1/9 (3.05)
EKLSLRYYYAN | GKNNRPS | SGRDSSGFQVF | 3.32 3.30 4.19 | 3.60 | 1/9 (3.05)
EGDSLRLYYAN | GQNNRES | SSRDSSGFQVF | 2.88 nd nd | 2.88 | 0/9
EGDSLRYYYAN | GKNNYPH | SSRDSSGFQFF | nd 4.49 nd | 4.49 | 0/9
EGDSLRYYYAN | GKNNRPS | LSRPSSGFQVF | 5.31 5.72 nd | 5.52 | 4/9 (4.41)
EYDNLRYYYAN | GKNNYPS | SSRDSSGFQVF | 3.40 4.51 nd | 3.96 | 2/9 (4.25)
EGDGLRYYYAN | GKNGRPS | SSRDSSGFQCF | 3.09 2.69 2.22 | 2.67 | 4/9 (3.55)
GGESLRYYYAN | GKNNRWS | SSRDSSGFQVF | 2.70 2.54 3.22 | 2.82 | 1/9 (4.47)
EGDSLFYYYAW | GKNVRPS | SSRDSSGFQVF | 4.07 2.54 3.95 | 3.52 | 2/9 (4.42)
EGDSLRYYYDN | GKNNRPS | SSSDSSGFQVF | nd 3.83 4.33 | 4.08 | 1/9 (4.05)
YGDSFRYYYAN | GKNNRPS | SSRDSIGFQVF | 3.65 3.44 3.44 | 3.51 | 2/9 (5.11)

Source: Engelhart et al. 2022 (doi:10.1038/s41597-022-01779-4), MIT Lincoln Laboratory and A-Alpha Bio; data file from the FLAb repository.